Measurements taken from paper PMC5321639, “Design and pharmacodynamics of recombinant NZ2114 histidine mutants with improved activity against methicillin-resistant Staphylococcus aureus” (AMB Express, 2017).
Values after ≈ are worked out from the molar mass of the structure shown. Read-outs that look alike come from different tables or passages of the source. Marks after values point to notes of the source that are not given here.

Assays:
[1] = system: S. aureus ATCC43300 (MRSA); conditions: data from previous results, ref Zhang et al. [2014], cited from earlier work
Description: Their characteristics of narrow-spectrum antibiot ...

[2] = system: S. aureus ATCC43300; assay: Postantibiotic effect (PAE); type: cell-based, Staphylococcus aureus; conditions: 2× MIC, 2 h exposure at 37 °C, 1 × 10^8 CFU/ml, drug removed by 1:10^3 dilution; mean ± SD, n = 3
Method: After 2 h, the drug was removed by diluting 1:10^3 into the MHB and incubated at 37 °C, 250 rpm. The sample was taken to plate counting every 1 h until the bacterial cultures become turbid. The PAE was calculated by the following formula: PAE = T − C, where T is the time needed for the count of CFU in the test culture to increase 1 log10 (10-fold) above the 0 h and C is the time needed for the count of CFU in the untreated control culture to increase 1 log10 above the 0 h (Giguère et al. [2012]).

[3] = system: E. coli CVCC195; assay: MIC assay; type: cell-based, Escherichia coli; conditions: MHB, 1 × 10^5 CFU/ml, 37 °C, 18–24 h, triplicate
Method: (§1) The peptide solutions were diluted twofold with the range of final concentrations were 0.015–32 µg/ml (0.003–7.273 µM) for purified H1, H2, H3, H6, and H8. The test strains were grown in MHB medium at 37 °C to an OD600 of 0.4 and diluted to 1 × 10^5 CFU/ml. The 10 µl peptide and 90 µl cell suspension were added into each well. All assays were performed in triplicate. The antimicrobial activity of NZ2114 and vancomycin were tested as positive controls. The plates were incubated at 37 °C for 18–24 h. MIC was defined as the lowest peptide concentration of ones at which there was no visible growth (Tian et al. [2009]).

[4] = system: E. coli CICC21530; assay: MIC assay; type: cell-based, Escherichia coli; conditions: MHB, 1 × 10^5 CFU/ml, 37 °C, 18–24 h, triplicate
Method: as §1

[5] = system: S. enteritidis CMCC50336; assay: MIC assay; type: cell-based, Salmonella enteritidis; conditions: MHB, 1 × 10^5 CFU/ml, 37 °C, 18–24 h, triplicate
Method: as §1

[6] = system: S. choleraesuis CVCC503; assay: MIC assay; type: cell-based; conditions: MHB, 1 × 10^5 CFU/ml, 37 °C, 18–24 h, triplicate
Method: as §1

[7] = system: S. typhimurium ATCC14028; assay: MIC assay; type: cell-based; conditions: MHB, 1 × 10^5 CFU/ml, 37 °C, 18–24 h, triplicate
Method: as §1

[8] = system: S. pullorum CVCC1789; assay: MIC assay; type: cell-based; conditions: MHB, 1 × 10^5 CFU/ml, 37 °C, 18–24 h, triplicate
Method: as §1

[9] = system: S. suis CVCC606; assay: MIC assay; type: cell-based, Streptococcus suis; conditions: MHB, 1 × 10^5 CFU/ml, 37 °C, 18–24 h, triplicate
Method: as §1

[10] = system: S. suis CVCC3309; assay: MIC assay; type: cell-based, Streptococcus suis; conditions: MHB, 1 × 10^5 CFU/ml, 37 °C, 18–24 h, triplicate
Method: as §1

[11] = system: S. suis CVCC3928; assay: MIC assay; type: cell-based, Streptococcus suis; conditions: MHB, 1 × 10^5 CFU/ml, 37 °C, 18–24 h, triplicate
Method: as §1

[12] = system: rabbit and human RBCs; conditions: ref Yang et al. [2011], Zhang et al. [2014]; cited from earlier work
Description: (§2) Although the values were higher than NZ2114 due to the high charge and hydrophilicity, they were still very low in the range of MICs. […] Owing to contribution from the three pairs of disulfide bond into th ...

[13] = ref Zhang et al. [2014], cited from earlier work
Description: as §2

[14] = system: S. pneumoniae CVCC1.8722; assay: MIC assay; type: cell-based, Streptococcus pneumoniae; conditions: MHB, 1 × 10^5 CFU/ml, 37 °C, 18–24 h, triplicate
Method: as §1

[15] = system: S. pneumoniae CVCC2350; assay: MIC assay; type: cell-based, Streptococcus pneumoniae; conditions: MHB, 1 × 10^5 CFU/ml, 37 °C, 18–24 h, triplicate
Method: as §1

[16] = system: S. aureus ATCC6538; conditions: data from previous results; ref Zhang et al. [2014]; cited from earlier work
Description: (§3) Table 2 MIC assays of H1, H2, H3, H6, H8, NZ2114, and vancomycin against G^+ and G^− pathogens | column: MIC (μM) / NZ

[17] = system: S. aureus ATCC25923; conditions: data from previous results; ref Zhang et al. [2014]; cited from earlier work
Description: as §3

[18] = system: S. aureus ATCC43300; conditions: NZ2114 combined with ampicillin; ref Zhang et al. [2014]; cited from earlier work
Method: The synergism effect of H1, H2 and H3 with traditional antibiotics which have different action mechanisms (vancomycin and ampicillin on cell wall, rifampicin on RNA, ciprofloxacin on DNA) was evaluated (Table 4). […] Meanwhi ...

[19] = system: Streptococcus pneumoniae; conditions: S. pneumoniae; ref Ostergaard et al. [2009]; Zhang et al. [2014]; Andes et al. [2009]; Xiong et al. [2011]; cited from earlier work
Description: (§4) Antimicrobial peptides (AMPs) are potent drugs known for their broad-spectrum of antimicrobial properties and particularly against antibiotic-resistant bacteria (Brogden and Brogden [2011]). However, some flaws hamper the clinical usage of AMPs, such as toxicity to normal mammalian cells and the lack of a cost-effective way of commercial-scale production (Cao et al. [2015]).

[20] = system: S. aureus; conditions: ref Ostergaard et al. [2009], Zhang et al. [2014], Andes et al. [2009], Xiong et al. [2011]; cited from earlier work
Description: as §4

Q: What does the source list for `CC[C@H](C)[C@@H]1NC(=O)[C@H](CO)NC(=O)[C@H](CCCCN)NC(=O)[C@@H]2CSSC[C@@H](C(=O)N[C@@H](Cc3ccc(O)cc3)C(=O)O)NC(=O)[C@H](CCCCN)NC(=O)[C@@H]3CSSC[C@H](NC(=O)[C@H](CCCNC(=N)N)NC(=O)[C@H](CC(C)C)NC(=O)[C@H](CC(=O)O)NC(=O)[C@H](CC(=O)O)NC(=O)[C@H](CCC(=O)O)NC(=O)[C@H](CC(N)=O)NC(=O)[C@H](Cc4c[nH]c5ccccc45)NC(=O)[C@@H]4CCCN4C(=O)CNC(=O)[C@H](CC(N)=O)NC(=O)[C@@H](NC(=O)CNC(=O)[C@H](Cc4ccccc4)NC(=O)CN)CSSC[C@H](NC(=O)[C@H](Cc4ccc(O)cc4)NC(=O)CNC(=O)CNC(=O)[C@H](CCCCN)NC(=O)[C@H](Cc4ccc(O)cc4)NC(=O)CNC(=O)[C@H](CCCCN)NC1=O)C(=O)N[C@@H](C)C(=O)N[C@@H](CCCCN)C(=O)NCC(=O)NCC(=O)N[C@@H](Cc1ccccc1)C(=O)N[C@@H](C(C)C)C(=O)N3)C(=O)N[C@@H](Cc1c[nH]cn1)C(=O)N[C@@H](CC(N)=O)C(=O)N[C@@H](Cc1c[nH]cn1)C(=O)N2` [NZ2114]?
A: MIC [1]: 0.909 µM (≈ 4.01 µg/mL); MIC ([1]; listed as NZ): 0.909^a μM; PAE [2]: 1.43 h; MIC [3]: >7.273 µM; MIC [4]: >7.273 µM; MIC [5]: >7.273 µM; MIC [6]: >7.273 µM; MIC [7]: >7.273 µM; MIC [8]: >7.273 µM; MIC [9]: 0.028 µM (≈ 0.124 µg/mL); MIC [10]: 0.028 µM (≈ 0.124 µg/mL); MIC [11]: 0.028 µM (≈ 0.124 µg/mL); hemolysis [12]: no hemolysis; activity maintained ([13]; 100 °C): 20%; pH value of highest activity [13]: 8.0; initial activity retained ([13]; temperatures from 20 to 80 °C): above 80%; MIC [14]: 0.454 µM (≈ 2 µg/mL); MIC [15]: 0.909 µM (≈ 4.01 µg/mL); MIC [16]: 0.114^a μM; MIC [17]: 0.028^a μM; FICI [18]: 0.125; MIC50 [19]: 0.25 µg/mL (≈ 0.0567 µM); MIC50 [20]: 2 µg/mL (≈ 0.453 µM)
